Source: PubChem
GIV-Gai inh: GIV-Galpha-i interaction inhibition; P08753; Galpha-i3/FITC-GIV peptide fluorescence polarization, 90 min; active compounds read low; scaled: aluminum fluoride 0%, vehicle 100%; percent of control (FP), % (no concentration beside the values); 210,000 compounds, 0.42% hits; AID 1224905;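 active means replicate mean at 85% of control or lower, very high polarization wells dropped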;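 further: wells of about 15 µL received 100 nL stock; the first replicate is given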
HCMV NEC inh: inhibitors of HCMV UL50-UL53 nuclear egress complex interaction. HTRF UL50-UL53 interaction, normalized percent inhibition. inhibition, % (concentration not given with the values). 190,000 compounds, 0.15% hits; in the data active = inhibition above about 27%, passing the limit was not always enough
GIV-Gai FP conf: confirmation of inhibitors of GIV binding to rat Galpha-i3. 580 compounds, 38% hits. FITC-GIV peptide binding to Galphai3, fluorescence polarization; active compounds read low. fluorescence polarization, mP at 100 µM. shares compounds with GIV-Gai inh. AID 1259350;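 active = inhibition score of 15 or more, meaning 100 minus mean polarization as percent of control over three replicates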;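 note: lower mP means peptide displaced from Galphai3 so more inhibition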
GIV-Gai AS conf: confirmation of inhibitors of GIV binding to human Galpha-i3. shares compounds with GIV-Gai inh. AlphaScreen Galphai3-GIV binding, purified proteins, 90 min; active compounds read low. AlphaScreen counts at 100 µM. 580 compounds, 39% hits;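 active = inhibition score at or above a set limit, where the score is 100 minus the three-replicate mean percent of control signal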
Large screens that a line does not name were inactive (follow-up assays come after a bar, where they were run). Sampled rows, rich in hits. Any-hit rate of the full collection: about 0.43%.

Cc1cccc(NC(=O)C2CCCN(c3nnc(-n4c(C)ccc4C)s3)C2)c1C (stereo not drawn)	none
Cc1ccc(C)n1-c1nnc(N2CCCC(C(=O)O)C2)s1 (stereo not drawn)	none (no result: HCMV NEC inh) | GIV-Gai FP conf inactive | GIV-Gai AS conf 7556
Cc1cccc(C)c1NC(=O)CSC(=O)c1cccs1	none (no result: HCMV NEC inh)
CC1=C(C(=O)OC(C)C)C(c2ccc(C(C)C)cc2)C(C#N)=C(N)S1 (stereo not drawn)	none (no result: GIV-Gai inh)
CC(C)c1ccc(C2C(C#N)=C(N)N3C(=C2C#N)Sc2ccccc23)cc1 (stereo not drawn)	GIV-Gai inh 79 (no result: HCMV NEC inh) | GIV-Gai FP conf inactive | GIV-Gai AS conf inactive
COC(=O)C1=C(C(=O)OC)SC2(S1)C(C(=O)OC)=C(C(=O)OC)SC1=C2c2cc(C)c(C)cc2N(C(=O)c2cccs2)C1(C)C	none (no result: HCMV NEC inh)
Cc1c(/C=N/N=c2\sc3ccccc3n2C)n(C)n(-c2ccccc2)c1=O	none (no result: GIV-Gai inh)
CN(C)c1ccc(/C=C/C=N/N=c2/sc3ccccc3n2C)cc1	none | GIV-Gai FP conf inactive | GIV-Gai AS conf inactive
Cc1ccc(NC(=S)Nc2cccc(C(F)(F)F)c2)cc1NS(C)(=O)=O	GIV-Gai inh 69, HCMV NEC inh 74 | GIV-Gai FP conf 50 | GIV-Gai AS conf inactive
COC(CNC(=S)Nc1cccc(C(F)(F)F)c1)OC	none
CC1=C(C)C(=O)c2ccccc2C1=O	none
CC1(C)CCC2=C(O1)c1ccccc1C(=O)C2=O	GIV-Gai inh 54 | GIV-Gai FP conf 54 | GIV-Gai AS conf inactive
CCCS(=O)(=O)/C(C#N)=C/Nc1ccc2c(c1)OCCO2	none
O=C(CCN1C(=O)/C(=C/c2ccc3c(c2)OCO3)SC1=S)NC1=NCCS1	GIV-Gai inh 84 | GIV-Gai FP conf inactive | GIV-Gai AS conf inactive
O=C(CCN1C(=O)/C(=C/c2ccc3c(c2)OCO3)SC1=S)Nc1ccccc1	none (no result: GIV-Gai inh)
CC(Nc1ccc(Oc2ccccc2)cc1)C(=O)N1CCCC1 (stereo not drawn)	none (no result: GIV-Gai inh)
Cc1c(C=Nc2ccc(SC#N)c(Cl)c2)c(O)[nH]c(=O)c1C#N	GIV-Gai inh 49 | GIV-Gai FP conf inactive | GIV-Gai AS conf inactive
Cc1c(C=Nc2ccc(Cl)cc2)c(O)n(C)c(=O)c1C#N	none
COc1cccc(NCCCCO)c1	none
CCOc1ccc(CCN=C2CC(c3ccccc3)CC(=O)/C2=C(/O)CC)cc1OCC (stereo not drawn)	none (no result: GIV-Gai inh)
Clc1ccc2c(c1)NNc1nncn1-2	none
O=C(O)CSc1nnc2n1-c1ccc(Cl)cc1NN2	GIV-Gai inh 47 | GIV-Gai FP conf 39 | GIV-Gai AS conf 6321
O=C(O)c1ccc(CS(=O)(=O)c2ccccc2)o1	GIV-Gai inh 77 (no result: HCMV NEC inh) | GIV-Gai FP conf inactive | GIV-Gai AS conf 2163
NNC(=O)c1ccc(CS(=O)(=O)c2ccccc2)o1	none (no result: GIV-Gai inh)
CCOCCOC(=O)C1=C(C)NC2(O)c3ccccc3C(=O)C12O (stereo not drawn)	none (no result: HCMV NEC inh)
CCOC(=O)C1=C(C)OC2(O)c3ccccc3C(=O)C12O (stereo not drawn)	GIV-Gai inh 80 | GIV-Gai FP conf inactive | GIV-Gai AS conf inactive
COC(=O)C1(C(O)c2ccc(Cl)cc2)CCCCC1 (stereo not drawn)	none
CSc1scc2c1C(=O)CC(C)(C)C2	none
CSc1scc2c1C(=O)/C(=C/N(C)C)CC2	GIV-Gai inh 14 | GIV-Gai FP conf 29 | GIV-Gai AS conf 1880
NS(=O)(=O)c1cc(S(N)(=O)=O)c2cccc3c2c1NC3=O	none (no result: HCMV NEC inh)
O=c1cc(O)c2sc(SCCN3CCOCC3)nc2[nH]1	none (no result: HCMV NEC inh)
CN(Cc1ccccc1)C(=O)c1cc2c(=O)n3ccccc3nc2n1C	GIV-Gai inh 68 | GIV-Gai FP conf inactive | GIV-Gai AS conf inactive
CCN(Cc1ccccc1)C(=O)c1cc2c(=O)n3ccccc3nc2n1C	none
Cc1ccc2ccc3cc(C(=O)N4CCCCC4)nc3c2[nH]1	none
CCn1c(=O)n(CC(=O)NCCc2ccc(OC)c(OC)c2)c(=O)c2ccccc21	none (no result: HCMV NEC inh)
O=C(Nc1ccccc1O)C1OC2OC3(CCCCC3)OC2C2OC3(CCCCC3)OC12 (stereo not drawn)	none (no result: HCMV NEC inh)
COc1ccc(/C=C2\SC(=O)N(CCC(=O)Nc3c(C)n(C)n(-c4ccccc4)c3=O)C2=O)cc1	none
COc1ccc(/C=C2/SC(=S)N(CCC(=O)Nc3c(C)n(C)n(-c4ccccc4)c3=O)C2=O)cc1	GIV-Gai inh 57 | GIV-Gai FP conf inactive | GIV-Gai AS conf inactive
CCn1nnc2cc(-c3noc(-c4cnccn4)n3)ccc21	none (no result: HCMV NEC inh)
Cc1nc2cc(-c3noc(-c4cnccn4)n3)ccc2n(C(C)C)c1=O	none | GIV-Gai FP conf inactive | GIV-Gai AS conf inactive
O=C1CC(C(=O)Nc2ccccc2)N=C(N2CCc3ccccc3C2)N1 (stereo not drawn)	GIV-Gai inh 81 | GIV-Gai FP conf inactive | GIV-Gai AS conf inactive
CN1CCN(C2=NC(C(=O)Nc3ccccc3)CC(=O)N2)CC1 (stereo not drawn)	none
O=[N+]([O-])c1ccc(NCCCO)cc1Sc1nc2ccccc2[nH]1	none (no result: HCMV NEC inh)
O=[N+]([O-])c1ccc(N2CCCCC2)cc1Sc1nc2ccccc2[nH]1	none (no result: HCMV NEC inh) | GIV-Gai FP conf inactive | GIV-Gai AS conf inactive
CNC(=O)c1ccccc1-[s+]1c2ccccc2c(=O)n1C (stereo not drawn)	none
Cc1cc(-c2ccccc2)n2nc(-c3ccc(Cl)cc3)cc2n1	GIV-Gai inh 51 (no result: HCMV NEC inh) | GIV-Gai FP conf inactive | GIV-Gai AS conf inactive
Cc1cc(C(F)(F)F)n2nc(-c3ccccc3)cc2n1	none
O=C(CCCCCn1c(=S)[nH]c2ccc(Br)cc2c1=O)NCc1ccc2c(c1)OCO2	none (no result: HCMV NEC inh)
Nc1n[nH]c2cc(=O)[nH]c(O)c12	GIV-Gai inh 48, HCMV NEC inh 110 | GIV-Gai FP conf 45 | GIV-Gai AS conf 7988
Cc1cc2c(=O)[nH]nc(N)c2c(=O)[nH]1	none
COc1c(C)cc(S(=O)(=O)N2CCN(c3ccc(F)cc3)CC2)c(C)c1C	none
N#C/C(=C\C=C\c1ccco1)C(N)=S	GIV-Gai inh 78 | GIV-Gai FP conf 50 | GIV-Gai AS conf 2145
N#CC(C#N)=C(N)/C(C#N)=C/c1ccco1	none
COc1ccc(N2CCN(C(=O)c3c[nH]c4ccc(S(=O)(=O)N5CCOCC5)cc4c3=O)CC2)cc1	none (no result: HCMV NEC inh)
O=S(=O)(c1cccc2nsnc12)N1CCC(Cc2ccccc2)CC1	none (no result: HCMV NEC inh)
O=S(=O)(c1cccc2nonc12)N1CCC(Cc2ccccc2)CC1	none (no result: HCMV NEC inh) | GIV-Gai FP conf inactive | GIV-Gai AS conf inactive
CCOC(=O)CN1C(=O)C2CC=C(Cl)CC2C1=O (stereo not drawn)	GIV-Gai inh 81 | GIV-Gai FP conf inactive | GIV-Gai AS conf inactive
O=C1C2CC=C(Cl)CC2C(=O)N1CCO (stereo not drawn)	none
COc1ccc(-c2oc(/N=C/c3ccc([N+](=O)[O-])cc3)c(C#N)c2-c2ccc(OC)cc2)cc1	none (no result: HCMV NEC inh)
CCOC(=O)/C=C1\SCC(=O)N1CCOC(=O)c1cc2c(C)nn(-c3ccccc3)c2s1	none (no result: GIV-Gai inh)
CN1C(=O)NC2(O)C(=O)c3ccccc3C12O (stereo not drawn)	none (no result: HCMV NEC inh)
CCCN1C(=O)NC2(O)C(=O)c3ccccc3C12O (stereo not drawn)	GIV-Gai inh 77 (no result: HCMV NEC inh) | GIV-Gai FP conf inactive | GIV-Gai AS conf inactive
CCCCSc1nc2c(sc3ncccc32)c(=O)n1CC1CCCO1 (stereo not drawn)	none
O=C(O)c1cc(NC(=O)c2ccc(NC(=O)c3ccco3)cc2)cc(C(=O)O)c1	GIV-Gai inh 79 | GIV-Gai FP conf 64 | GIV-Gai AS conf 22001
